These are literature values, as cited in US5744476A, “Dopamine D1 agonists for the treatment of dementia” (Interneuron Pharmaceuticals, Inc., priority 1994, dated 1998).

Series [1] concerns choice accuracy deficits (CADS) due to scopolamine. The settings on record: in vivo; cited from earlier work.
The next series deals with cortical ACh release. The settings on record: in vivo; cited from earlier work.

In the case of `CCCN1CCC[C@@H]2Cc3n[nH]cc3C[C@H]21` [quinpirole], in series [1], the “choice accuracy deficits due to scopolamine” value is “but not quinpirole, alleviated choice accuracy deficits (CADS) due to scopolamine”. In addition, the “cortical ACh release” value with cortical ACh release is “no effect”.
